Structures are written as SMILES. Only a part is listed here, and it is no random draw. Records with an inconclusive call do not appear. Activity calls are given as the source filed them. Calls come from the whole dose curve; as a rule, active = well fitted inhibition curve with a large enough effect; inconclusive = small, poorly fitted or top-dose-only effect, or effect the other way; inactive = flat fitted curve, though single readings scatter.
% is set by controls: 0 for no effect and ±100 for the full control effect.

Amino acid sequences for entries named in this document (tags omitted).
UniProt P07954, whole entry: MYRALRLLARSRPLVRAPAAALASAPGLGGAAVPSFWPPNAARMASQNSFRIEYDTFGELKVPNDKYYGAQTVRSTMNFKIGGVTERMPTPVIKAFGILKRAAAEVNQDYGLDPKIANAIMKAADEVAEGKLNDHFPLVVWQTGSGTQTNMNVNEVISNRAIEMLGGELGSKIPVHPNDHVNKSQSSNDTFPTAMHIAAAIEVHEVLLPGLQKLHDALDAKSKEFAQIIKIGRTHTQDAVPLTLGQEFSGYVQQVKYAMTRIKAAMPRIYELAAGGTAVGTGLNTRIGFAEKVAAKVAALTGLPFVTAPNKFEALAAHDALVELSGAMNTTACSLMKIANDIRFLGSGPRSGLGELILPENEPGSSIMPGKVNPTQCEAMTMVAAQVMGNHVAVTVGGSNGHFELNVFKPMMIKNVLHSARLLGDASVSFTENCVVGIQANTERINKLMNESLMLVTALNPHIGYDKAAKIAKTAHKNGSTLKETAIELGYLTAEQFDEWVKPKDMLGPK

For this assay, the target named is Fumarate hydratase, mitochondrial (Homo sapiens) (UniProt P07954). Briefly: Identification of activators of human fumarate hydratase by quantitative high-throughput screening. Note: the screen sought activators but most active calls are inhibition curves; nearly all actives have a fitted effect of over 45% in size. The settings on record: FH coupled MDH/diaphorase resazurin fluorescence, 15 min; at 79.9 µM (top of the series) unless noted. The source says: Fumarate hydratase (FH) is a metabolic enzyme that is part of the Krebs-cycle, and reversibly catalyzes the hydration of fumarate to malate. Mutations of the FH gene have been associated with fumarate hydratase deficiency (FHD), hereditary leiomyomatosis, renal cell cancer (HLRCC), and other diseases. Currently there are no high-quality small molecule probes for studying human fumarate hydratase. To address this, we developed a quantitative high throughput screening (qHTS) FH assay and screened a total of 57,037 compounds in dose-response. While no inhibitors of FH were confirmed, a series of phenyl-pyrrolo-pyrimidine-diones (12 compounds) were identified as activators of human fumarate hydratase. […] The binding of two compounds from the series to human fumarate hydratase was confirmed by microscale thermophoresis. The low hit rate in this screening campaign confirmed that FH is a "tough target" to modulate, and the small molecule activators of human fumarate hydratase reported here may serve as a starting point for further optimization and development into cellular probes of human FH and potential drug candidates.
For primary high-throughput screen, 3 ul of FH solution (containing 13.33nM human fumarate hydratase, 13.33IU/ml malic dehydrogenase, 0.2mM NAD, 0.067mg/ml diaphorase and 0.067mM resazurin in the assay buffer (50 mM Tris pH 8.0, 5 mM MgCl2, 0.01% Brij 3) was dispensed into each well in a black solid bottom 1536-well assay plate (Greiner Bio-One) using a BioRAPTR FRD dispenser (Beckman Coulter, Brea, CA). A 1536-well pintool dispenser outfitted with 20 nl pins (Wako Automation, San Diego, CA) was used to transfer 20 nL of DMSO-solubilized compound (Cherrypick plates) to each 1536-well assay plate. Each compound was screened at five concentrations: 15 nM, 151 nM, 1.5 uM, 15.4 uM, 76.9 uM. Following compound transfer, plates were incubated in room temperature for 10 minutes. 1 uL of substrate solution containing fumaric acid (160 uM) was dispensed via BioRAPTR FRD to initiate the reaction. Plates were immediately transferred to a ViewLux microplate imager (PerkinElmer, Waltham, MA), and any resulting resorufin fluorescence was measured (exitation/emission, 525/598 nm) at 0 and 15 minutes. The exposure time is 1 second. Fluorescence from each well was normalized using enzyme-free and DMSO-treated control wells on each plate, and changes in fluorescence (delta RFU) were calculated using the difference in fluorescent signal for each well at 15 minutes versus 0 minutes.
Take `CCOC(=O)N1CCC(=O)CC1`: the activity change, negative = inhibition was inactive: -1.62% [at 53.3 µM].
`COc1ccccc1C(=O)NCC1(N2CCOCC2)CCCCC1`: the activity change, negative = inhibition was inactive: -1.64%.
As for `O=C(NCC1(N2CCOCC2)CCCCC1)c1ccc(Cl)cc1`, the activity change, negative = inhibition was inactive: -28.9%.
For the compound `CCOC(=O)C(=O)CBr`, the activity change, negative = inhibition is inactive: 2.41% [at 53.3 µM].
In the case of `CCOc1ccc(C(=O)NCC2(N3CCOCC3)CCCCC2)cc1` it was inactive: 1.74%; in that of `CCCOc1cccc(C(=O)NCC2(N3CCOCC3)CCCCC2)c1`, inactive: -0.885%.
Take `CCCCOc1ccccc1C(=O)NCC1(N2CCOCC2)CCCCC1`: the activity change, negative = inhibition is inactive: 7.51%.
As for `O=C(NCC1(N2CCOCC2)CCCCC1)c1ccccc1Br`, the figure is inactive: 3.07%.
Take `CCC(=O)N(c1ccccc1)C1CCNCC1`: the activity change, negative = inhibition is inactive: 6.31% [at 53.3 µM].
For `O=C(NCC1(N2CCOCC2)CCCCC1)c1ccccc1[N+](=O)[O-]`, the activity change, negative = inhibition is inactive: -35.1%.
`O=C(NCC1(N2CCOCC2)CCCCC1)c1ccc([N+](=O)[O-])cc1`: the activity change, negative = inhibition was inactive: -1.97%.
In the case of `O=C(NCC1(N2CCOCC2)CCCCC1)c1ccccc1` it was inactive: 4.62%; in that of `CC(=O)N1CCc2ccc(N(C(=O)/C=C/c3cccc(C#N)c3)C3CCN(CCC4CCCC4)CC3)cc21`, inactive: 1.31%; in that of `CN(C)C1(CNC(=O)c2ccc(C(C)(C)C)cc2)CCCCC1`, inactive: -14.8%.
In the case of `Cc1ccccc1C(=O)NCC1(N(C)C)CCCCC1`, the activity change, negative = inhibition is inactive: 3.04%.
As for `CC(C)(C)c1ccc(C(=O)NCC2(N3CCOCC3)CCCCC2)cc1`, the activity change, negative = inhibition is inactive: -6.83%.
Turning to `COc1cc(C(=O)NCC2(N3CCOCC3)CCCCC2)cc(OC)c1OC`, the activity change, negative = inhibition was inactive: 5.18%.

The values are drawn from PubChem BioAssay AID1347055 (National Center for Advancing Translational Sciences (NCATS), 2019).
